The results in this text go back to ChEMBL document CHEMBL1144888, “Synthesis, structure-activity relationship, and evaluation of SR141716 analogues: development of central cannabinoid receptor ligands with lower lipophilicity” (J Med Chem, 2003).

The chains behind the UniProt entries cited, without tags or fusion partners.
UniProt P20272, whole entry: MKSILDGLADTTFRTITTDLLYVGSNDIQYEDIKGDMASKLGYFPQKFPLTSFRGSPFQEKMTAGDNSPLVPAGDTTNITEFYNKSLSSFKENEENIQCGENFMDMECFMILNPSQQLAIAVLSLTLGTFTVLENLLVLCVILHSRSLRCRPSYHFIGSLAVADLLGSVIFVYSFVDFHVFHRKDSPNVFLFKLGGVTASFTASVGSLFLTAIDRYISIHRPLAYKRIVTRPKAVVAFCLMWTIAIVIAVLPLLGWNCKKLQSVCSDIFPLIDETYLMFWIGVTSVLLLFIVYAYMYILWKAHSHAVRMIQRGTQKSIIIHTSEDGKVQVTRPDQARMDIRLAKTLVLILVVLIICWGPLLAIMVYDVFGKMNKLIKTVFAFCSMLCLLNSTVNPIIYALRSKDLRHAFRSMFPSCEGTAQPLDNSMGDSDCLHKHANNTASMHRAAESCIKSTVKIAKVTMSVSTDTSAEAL

The test concerns the target Cannabinoid receptor 1 (Rattus norvegicus, UniProt P20272).

In turn, `COc1ccc(-c2c(C)c(C(=O)NN3CCCCC3)nn2-c2ccc(Cl)cc2Cl)cc1` registered a Ki of 4.1 nM.

The term Ki denotes the dissociation constant of the complex between target and ligand, obtained from inhibition or displacement. Lower therefore signals a stronger hold on the target.
